## Ab-14 light chain CDR variants: yeast mating affinities

Data: MIT Lincoln Laboratory AlphaSeq set, Li et al. 2023, doi:10.1038/s41467-023-39022-2, as distributed in FLAb.

All variants were tested on one target, the spike HR2 peptide PDVDLGDISGINAS (SARS-CoV-2).

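This is the validation round: designs drawn from the data on random variants, tested in the same kind of assay. Group labels follow the data file (Ctrl: baseline library sampled from a position-specific scoring matrix, with some repeated check sequences; Rand: our label for a block that the file lists under HC and that is probably the random mutants of the ten best first-round binders; En: ensemble of fine-tuned language models; GP: Gaussian process model; HC: hill climbing; Gen: genetic algorithm; Gibbs: Gibbs sampling; a sequence that several methods proposed may carry one label only). Affinity was read by AlphaSeq, a pooled yeast mating assay with surface-displayed partners. Binding brings cells together so that they mate, and sequencing counts the barcode pairs among the diploids. Scores were corrected for input abundance and mapped to Kd with protein pairs of known affinity run in the same pool. Mating was done six times.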

Parent: Ab-14, a human scFv built as VH, the linker GGGGSGGGGSGGGGS, VL. Only the CDRs of the light chain vary.
VH: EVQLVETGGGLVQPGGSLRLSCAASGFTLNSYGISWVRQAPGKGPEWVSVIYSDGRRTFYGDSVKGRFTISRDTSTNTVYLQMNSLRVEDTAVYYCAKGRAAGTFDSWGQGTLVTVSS
VL: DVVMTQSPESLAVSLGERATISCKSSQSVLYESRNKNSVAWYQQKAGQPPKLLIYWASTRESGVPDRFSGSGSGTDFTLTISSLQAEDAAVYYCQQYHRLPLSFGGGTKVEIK

Each variant is given by its three light chain CDRs, as the data file delimits them; those of the parent are KSSQSVLYESRNKNSVA, WASTRES, QQYHRLPLS.
Scale: log10 of Kd in nM, estimated from mating counts; low values are strong binders.
Averages over replicates are reported, and they cover detected replicates only.
Where no diploid with the target was found in any replicate, the entry reads "no signal": below detection, most likely a poor binder, though not proof of it.
A sequence measured in both rounds can read differently, since the two assays cover different ranges.

| CDR-L1 | CDR-L2 | CDR-L3 | group | mean log10 Kd (nM) | seen in | empty controls |
|---|---|---|---|---|---|---|
| KIGMTLNQLMHHKNNVA | DLVTREN | QQYHRLPLS | En_Gen | 0.57 | 6/6 | 1/18 |
| KSSQSVLYESRNKHSVA | HASTRES | QQYHYLPLS | Ctrl | 3.04 | 4/6 | 1/18 |
| MISQSFLIGMKAKNSVA | QTNTREE | QQYDRLPLM | En_HC | 0.20 | 6/6 | 1/18 |
| KLSQSYLYEERNKNSVA | NASTRES | QQYHRLPLS | GP_Gen | 0.01 | 6/6 | 1/18 |
| KLYQSVLYESRNKNSVA | NASTRLS | QQYHRLPLS | GP_Gen | 0.19 | 6/6 | 1/18 |
| KFSQSVLYESRNKNSVA | DASTRES | QQYHRLPLD | GP_HC | 0.47 | 6/6 | 0/18 |
| KWSQSVLYESKNKNSVA | WASTRES | QQYHRLPLS | Ctrl | 2.65 | 5/6 | 0/18 |
| KSSQSVLYESANKNSVA | WASTREN | QQYHRLPLS | Ctrl | 1.63 | 6/6 | 0/18 |
| KQSQSVLYESRNKNAVA | EASTRES | QQYHRLPLS | GP_HC | 0.39 | 6/6 | 1/18 |
| KLSQSVLYEERMKNSVA | NASQRES | QQYHRLPLS | GP_Gen | 0.21 | 6/6 | 2/18 |
| KSSQSVLYESRNKNSVA | WASTRES | QIYHRLPLS | Ctrl | no signal | 0/6 | 0/18 |
| KLSGSVCMLSRNDNSVA | DASTRES | QQYHRLPLS | GP_Gibbs | 0.94 | 6/6 | 1/18 |
| KHEEGVLYQSRNKNSVA | EGSTRES | QQYHRLPLS | GP_Gibbs | 0.22 | 6/6 | 1/18 |
| KLQQQWEYESRNKNSVA | SASTREE | QQYHRLPLS | GP_HC | 0.29 | 6/6 | 0/18 |
| KSSMSYLYESRNKNSVA | GASTRES | QQYHRLPLS | GP_HC | 0.01 | 6/6 | 1/18 |
| KLSESNLYESRNKNSVA | EASTRES | QQYHRLPLS | GP_Gen | 0.81 | 6/6 | 1/18 |
| KLSQSDLYESRNKNSVA | EASTRES | QSYHRLPLS | GP_Gen | -0.63 | 6/6 | 0/18 |
| KLGDMVHTLSRNKNNIA | DMRTRES | QQYYRLPLS | En_HC | -0.34 | 6/6 | 2/18 |
| NLSYQQFEPTGMVNSVA | QTSLRAH | QQYAHLPLC | En_Gibbs | 0.83 | 6/6 | 3/18 |
| KVKNMMHQMGTQHQNIA | DMAIKCD | QQYQRLPLH | En_Gibbs | -0.05 | 6/6 | 0/18 |
| KVSQEDPMESRNKNSVA | HASLRES | QQYHRLPLS | GP_Gibbs | 0.10 | 6/6 | 0/18 |
| TLSHSMDMTSRNVNSVA | DLTTRGN | QQYHRLPLS | En_HC | 0.14 | 6/6 | 1/18 |
| KLSQSVLYQMGMKNSVA | QAVTRMS | QQYHRLPLS | GP_Gibbs | 0.49 | 6/6 | 0/18 |
| KMSQSQEYESRNSNAVA | NASQRLQ | QQYHRLPLS | GP_Gibbs | 0.01 | 6/6 | 2/18 |
| KLGGVTEYEMSNHNSVA | QMTTRES | QQYHRLPLS | En_HC | 0.34 | 6/6 | 1/18 |
| KSSQSVLYESRNKNSVA | QASLRES | QQYHRLPLS | Ctrl | 0.75 | 6/6 | 2/18 |
| FFGYDIFQENMKAKSIA | EANMKVE | QQYAILPLT | En_Gibbs | 1.70 | 3/6 | 0/18 |
| KISQNMGETSRNKHSVA | EVSLVPS | QQYWRLPLS | En_HC | 1.39 | 6/6 | 2/18 |
| KSSQSVLYESTNKNSVA | DASTRES | QQYHRLPLS | Ctrl | -0.11 | 6/6 | 1/18 |
| KLSQSDLYEDRVKNSVA | GASTRES | QQYHRLPLS | GP_HC | 0.00 | 6/6 | 0/18 |
| KQSQSVLYESVNKNSVA | DASTRMS | QQYHRLPLS | GP_HC | 0.44 | 6/6 | 2/18 |
| IVSQLMLWGMHAKNSIA | EAVTRLN | QQYDRLPLI | En_Gen | no signal | 0/6 | 0/18 |
| KLRQSTLYESRNQNSVA | HASTRES | QQYHRLPLS | GP_HC | 0.05 | 6/6 | 1/18 |
| HMSQVTMYGYWNKNSVA | QTSTREP | QQYDRLPLS | En_HC | 2.54 | 6/6 | 0/18 |
| KLRQSTLYESRQKNSVA | WASTRLS | QQYHRLPLS | GP_HC | 0.77 | 6/6 | 0/18 |
| KSSQSVLYESRNKNGVA | WASTRES | QQYARLPLD | Ctrl | no signal | 0/6 | 1/18 |
| QLRDEQWAEGMNIQSIA | EGEVSKD | QQYNRLPLS | En_Gibbs | 1.87 | 6/6 | 0/18 |
| KLEQSVPYESRNKNSVA | NASTRMS | QQYHRLPLS | GP_Gen | -0.33 | 2/6 | 0/18 |
| KQSQSVLYQSVNKNSVA | DASTRCS | QQYHRLPLS | GP_HC | -0.19 | 6/6 | 0/18 |
| MISQLMNMGQFAINSVA | QASERNV | QQYDRLPLI | En_Gen | 1.74 | 6/6 | 0/18 |
| KSSQSVLYESRNKNSVA | WASTRED | QQAHRLPLS | Ctrl | no signal | 0/6 | 0/18 |
| KFMQMVWQEDRNKNSVA | NASTRMQ | QQYHRLPLS | GP_Gibbs | 0.30 | 6/6 | 1/18 |
| NLNDSDMYASQMTDNIA | QDTLRNE | QQYAKLPLS | En_Gibbs | 1.45 | 6/6 | 0/18 |
| RMSQSVLYESRSLNPVA | WASTRES | QQYHRMPLS | Ctrl | 1.51 | 6/6 | 2/18 |
| KVQWLWPYWSRNWNSVA | NASTREQ | QQYHRLPLS | GP_Gibbs | 0.07 | 6/6 | 1/18 |
| KLQQSWEYESRNKNNVA | MGSQRED | QQYHRLPLS | GP_Gibbs | 1.01 | 6/6 | 0/18 |
| KSSISWLYESRNTNSVA | EASTRES | QQYHRLPLS | GP_HC | -0.28 | 6/6 | 0/18 |
| KIQDNLGELLSQINSVA | STEEKSD | QSYMRLPLS | En_Gibbs | 2.42 | 3/6 | 1/18 |
| KLSISIYGEGSEVQSVA | GAEELRQ | QHYNRLPLS | En_Gibbs | no signal | 0/6 | 0/18 |
| KSSQSVLYESRNKNSVA | WASTREI | QQYHRLHLS | Ctrl | no signal | 0/6 | 0/18 |
| KSSPSVEYESHNKNSVA | NASTRMS | QQYHRLPLS | GP_HC | 0.54 | 6/6 | 0/18 |
| KISQMSTIESIMHNSVA | QTSEREN | QQYDRLPLS | En_HC | 0.96 | 6/6 | 0/18 |
| KLWGSPLEGQSELQAVA | QAEVLRQ | QQYNMLPLS | En_Gibbs | 1.16 | 6/6 | 0/18 |
| KLMWSDQYWSRNKNSVA | GASERES | QQYHRLPLS | GP_Gibbs | 1.04 | 6/6 | 0/18 |
| SLYEAQQMGGLHTSAIA | DANQQMR | QHYNRLPLA | En_Gibbs | 1.47 | 6/6 | 0/18 |
| NLNDSEMQMPQMTSNIA | QTTLRNL | QQYAKLPLS | En_Gibbs | 0.26 | 6/6 | 2/18 |
| KLSQSDLYESRNKNSVA | NASTRED | QQYHRLPLS | GP_Gen | -0.19 | 6/6 | 0/18 |
| KLRQSMLYEDRNKNSVA | NASQRCS | QQYHRLPLS | GP_Gibbs | -0.42 | 6/6 | 1/18 |
| KLQQSQLYESRNKNSVA | HASTRLS | QQYHRLPLS | GP_Gen | 0.24 | 6/6 | 0/18 |
| DSSQSWLYESRNKNSVA | GASTRES | QQYHRLPLS | Rand | -0.54 | 6/6 | 0/18 |
| KLPQSQLYESRNKNSVA | NASTRLS | QQYHRLPLS | GP_Gen | -0.08 | 6/6 | 3/18 |
| KLRQVTGYESYNKNSVA | QTSTRVN | QDYHRLPLS | En_HC | 1.26 | 6/6 | 1/18 |
| KISQSVEYQQRNPNSVA | SASTRLS | QQYHRLPLS | GP_Gibbs | -0.42 | 6/6 | 1/18 |
| MITDVMYNNNEGMQSIA | DKAISVN | QQYFRLPLD | En_Gibbs | 3.09 | 3/6 | 0/18 |
| HSSPSVLYESRNGNSVA | NASTREM | QQYHRLPLS | GP_HC | 0.72 | 6/6 | 2/18 |
| KLSQSMMYESRNKNSVA | NASTRES | QQYHRLPLS | GP_Gen | -0.01 | 6/6 | 2/18 |
| KIGSTLNQMMHKKNNVA | DLVTREN | QQYHRLPLS | En_Gen | 0.36 | 6/6 | 1/18 |
| KVQQSELGGSRNKNSVA | NASTRED | QQYHRLPLS | GP_Gibbs | -0.16 | 6/6 | 1/18 |
| MLGDTVMQGMYSRNSVA | QESTRAE | QQYHHLPLS | En_HC | -0.10 | 6/6 | 1/18 |
| KGSVSVLYESTNKNSVA | HASTRED | QSYHRLPLS | Ctrl | 0.15 | 5/6 | 0/18 |
| KLSQSVLVESRNKNSVA | NASTRES | QQYHRLPLS | GP_Gen | -0.14 | 6/6 | 3/18 |
| KLQNLMGTMGKQNQNIA | QGAITRV | QQYQRLPLW | En_Gibbs | 0.57 | 6/6 | 0/18 |
| MVTQMAMTGMTNKRSVA | NAETRED | QQYHRLPLI | En_Gen | 1.47 | 5/6 | 0/18 |
| KLSQSVLYESRNKNSVA | QASTRES | QQYHRLPLS | Ctrl+GP_Gen | -0.21 | 12/12 | 1/36 |
| HVSSMDMHDGGIKHSVA | DMKITER | QQYMRLPLS | En_Gibbs | 1.00 | 6/6 | 0/18 |
| KLSQSWLYESRNKNSVA | NASTREK | QQYHRLPLS | GP_Gen | -0.06 | 6/6 | 2/18 |
| KLSQSVDYQSRNKNNVA | NAQTRMS | QQYHRLPLS | GP_Gibbs | -0.38 | 6/6 | 2/18 |
| KLQQSWLYESRNKNSVA | WASTRES | QQYHRLPLS | Ctrl | 1.24 | 6/6 | 1/18 |

Repeated from above, the 8 best binders with a signal in all replicates:

CDR-L1,CDR-L2,CDR-L3,group,mean log10 Kd (nM),seen in,empty controls
KLSQSDLYESRNKNSVA,EASTRES,QSYHRLPLS,GP_Gen,-0.63,6/6,0/18
DSSQSWLYESRNKNSVA,GASTRES,QQYHRLPLS,Rand,-0.54,6/6,0/18
KLRQSMLYEDRNKNSVA,NASQRCS,QQYHRLPLS,GP_Gibbs,-0.42,6/6,1/18
KISQSVEYQQRNPNSVA,SASTRLS,QQYHRLPLS,GP_Gibbs,-0.42,6/6,1/18
KLSQSVDYQSRNKNNVA,NAQTRMS,QQYHRLPLS,GP_Gibbs,-0.38,6/6,2/18
KLGDMVHTLSRNKNNIA,DMRTRES,QQYYRLPLS,En_HC,-0.34,6/6,2/18
KSSISWLYESRNTNSVA,EASTRES,QQYHRLPLS,GP_HC,-0.28,6/6,0/18
KLSQSVLYESRNKNSVA,QASTRES,QQYHRLPLS,Ctrl+GP_Gen,-0.21,12/12,1/36

Empty control strains, which show no peptide, gave a signal in 4% of pairings with all light chain designs; the median was 2.64 and 95% of these signals were weaker than 1.59. No background was subtracted. The control count says in how many pairings with the empty strains this scFv gave a signal.
Where one sequence has several entries in the source, the replicates are pooled.
The authors' rule: three or more of the six replicates give a measured affinity, fewer mean a poor binder.